This is an account of results in article PMC7988493, “The transmembrane peptide DWORF activates SERCA2a via dual mechanisms” (The Journal of Biological Chemistry, 2021).

By UniProt entry, the sequences of proteins in these tests, tags left out. Where a name states a change or a piece, a line headed by the entry shows the natural chain unless it says otherwise. Chains listed by the source or under a name are the forms on record and can include a tag or linker.
UniProt P16615, other isoform, or with tags, fused parts or gaps: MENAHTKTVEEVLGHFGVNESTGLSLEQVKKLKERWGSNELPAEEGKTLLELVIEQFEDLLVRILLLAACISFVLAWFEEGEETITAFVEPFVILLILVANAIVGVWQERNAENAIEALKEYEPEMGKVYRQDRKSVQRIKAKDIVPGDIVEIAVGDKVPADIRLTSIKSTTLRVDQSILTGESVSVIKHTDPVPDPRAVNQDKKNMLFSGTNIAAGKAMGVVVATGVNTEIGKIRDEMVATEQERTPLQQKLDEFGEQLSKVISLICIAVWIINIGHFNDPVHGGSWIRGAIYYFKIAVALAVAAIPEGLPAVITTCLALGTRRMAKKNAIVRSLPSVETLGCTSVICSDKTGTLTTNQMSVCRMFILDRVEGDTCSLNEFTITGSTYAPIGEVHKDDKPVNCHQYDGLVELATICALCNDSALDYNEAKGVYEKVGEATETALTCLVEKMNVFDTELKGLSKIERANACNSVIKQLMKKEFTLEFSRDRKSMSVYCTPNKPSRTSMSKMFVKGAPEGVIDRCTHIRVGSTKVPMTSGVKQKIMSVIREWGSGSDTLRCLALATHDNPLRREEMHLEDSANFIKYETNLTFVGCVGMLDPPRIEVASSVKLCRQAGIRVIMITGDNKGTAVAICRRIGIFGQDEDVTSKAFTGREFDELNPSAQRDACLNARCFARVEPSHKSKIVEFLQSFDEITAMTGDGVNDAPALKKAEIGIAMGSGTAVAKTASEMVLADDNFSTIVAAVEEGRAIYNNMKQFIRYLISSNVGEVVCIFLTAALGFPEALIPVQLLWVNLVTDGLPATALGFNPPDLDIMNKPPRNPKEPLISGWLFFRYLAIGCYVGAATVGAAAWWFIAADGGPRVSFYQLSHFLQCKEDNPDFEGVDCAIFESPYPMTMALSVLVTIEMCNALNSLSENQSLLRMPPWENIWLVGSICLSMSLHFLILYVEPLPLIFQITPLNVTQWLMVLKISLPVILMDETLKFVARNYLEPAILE
UniProt P0DN84: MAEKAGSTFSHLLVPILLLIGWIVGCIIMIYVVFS

This assay addresses T1, GFP-SERCA2a (EGFP fused to the N terminus of human SERCA2a) (human, UniProt P16615-2).
T1 construct: sarcoplasmic/endoplasmic reticulum calcium ATPase 2, isoform SERCA2a, human; A 5-residue linker stands between EGFP and SERCA2a; also called Ca-ATPase isoform 2a; FRET donor; source: HEK293, stably expressed (pcDNA3.1), in live cells; cell homogenates for the Ca-ATPase assay; not shown: EGFP, N-terminal, kept
As to the kind of experiment: FRET or BRET; fluorescence lifetime (TCSPC) FRET in live HEK293 cells stably expressing GFP-SERCA2a (donor), RFP-labeled DWORF construct (acceptor) transiently transfected at varied DNA amounts; cells at 1 million per ml in PBS; E and mole fraction XDA from multiexponential analysis. As to conditions: partners not purified. A general note: Bioluminescence resonance energy transfer reports proximity on the nanometre scale.

B1: RFP–DWORF P15A/W22A double mutant (peptide, UniProt P0DN84 1-35, looked up)
chain: MAEKAGSTFSHLLVAILLLIGAIVGCIIMIYVVFS
As to B1, the “fold decrease of the fraction of SERCA2a containing bound DWORF (XDA) against WT DWORF” value turned out to be 4 fold.
